This is an account of results in publication PMC8667925, “New 1,2,4-oxadiazole derivatives with positive mGlu4 receptor modulation activity and antipsychotic-like properties” (Journal of Enzyme Inhibition and Medicinal Chemistry, 2021).

Chains of the proteins cited; added tags and fusions are not shown. Residues count along the entry.
UniProt Q14833, 33-912 limits assumed: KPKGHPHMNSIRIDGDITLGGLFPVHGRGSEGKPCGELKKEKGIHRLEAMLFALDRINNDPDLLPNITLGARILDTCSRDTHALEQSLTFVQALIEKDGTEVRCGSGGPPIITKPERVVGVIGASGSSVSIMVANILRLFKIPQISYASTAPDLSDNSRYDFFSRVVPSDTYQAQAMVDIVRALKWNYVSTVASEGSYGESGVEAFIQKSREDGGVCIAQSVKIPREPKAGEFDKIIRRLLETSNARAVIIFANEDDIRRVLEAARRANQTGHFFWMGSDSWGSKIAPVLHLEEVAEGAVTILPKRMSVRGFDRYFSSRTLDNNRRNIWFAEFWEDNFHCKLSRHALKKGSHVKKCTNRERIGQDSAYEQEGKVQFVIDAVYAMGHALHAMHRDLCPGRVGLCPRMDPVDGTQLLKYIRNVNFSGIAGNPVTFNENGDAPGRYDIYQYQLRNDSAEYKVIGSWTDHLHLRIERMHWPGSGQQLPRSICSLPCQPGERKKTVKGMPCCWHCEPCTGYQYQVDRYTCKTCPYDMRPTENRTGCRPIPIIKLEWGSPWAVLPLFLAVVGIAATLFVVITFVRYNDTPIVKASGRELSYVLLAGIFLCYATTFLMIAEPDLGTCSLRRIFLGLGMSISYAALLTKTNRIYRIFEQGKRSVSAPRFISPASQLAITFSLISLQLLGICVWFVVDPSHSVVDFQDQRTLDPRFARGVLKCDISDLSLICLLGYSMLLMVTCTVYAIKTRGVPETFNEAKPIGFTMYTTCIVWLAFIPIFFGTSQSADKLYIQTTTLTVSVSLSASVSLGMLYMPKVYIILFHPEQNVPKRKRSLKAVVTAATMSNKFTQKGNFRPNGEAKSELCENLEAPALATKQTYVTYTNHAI

The assay addresses mGlu4 receptor (Homo sapiens, UniProt Q14833). The assay can be described thus: forskolin-stimulated cAMP assay, PAM mode (EC20 of L-Glu), T-REx 293 cells. The note with it: SEM where given. Here is the method: The activity of the compounds was assessed in vitro in a forskolin-stimulated cAMP assay in T-REx 293 cells expressing human mGlu4 receptors in the presence of an EC20 concentration of L-Glu; a PAM was identified if it potentiated cAMP inhibition by the Gi/o-dependent pathway of mGlu4 receptor activation; i.e. if it was able to produce a leftward shift in the potency of the endogenous agonist.
Determination of the intracellular cAMP through a homogeneous time-resolved fluorescence (HTRF) cAMP dynamic 2 kit from Cisbio (Codolet, France) was described previously by Chruścicka et al.[91]. Briefly, cells were grown in DMEM supplemented with 10% foetal bovine serum (FBS) (tetracycline free). Forty-eight hours before the experiments, mGlu receptor expression was induced by the addition of 0.75 µg/mL tetracycline. Twenty hours before the experiment, FBS and L-Glu were removed from the medium. Thereafter, the cells were scraped and centrifuged. A cell pellet was suspended in Hanks-HEPES (130 mM NaCl, 5.4 mM KCl, 1.8 mM CaCl2, 0.8 mM MgSO4, 0.9 mM NaH2PO4, 20 mM HEPES, and 3.25 mM glucose; pH 7.4). Then, the cell suspension was incubated in the presence of 10 µM forskolin (or 3 µM forskolin for mGlu7 receptor), the agonist L-glutamate and a compound for 5 min. Next, 10 µl of the cell suspension was mixed with 5 µl of cAMP-d2 conjugate and 5 µL of anti-cAMP cryptate conjugate. After 1 h of incubation at rt, the fluorescence at 620 nm and 665 nm was read (Tecan Infinite M1000). The results were calculated as the 665 nm/620 nm ratio multiplied by 10^4. Each sample was prepared in triplicate.
Statistical calculations were performed using GraphPad Prism 5.04 software (GraphPad Software, La Jolla, CA, USA). The curves were fitted to a 3-parametric logistic equation, allowing for the determination of EC50 values. Each data point was analysed in triplicate.

Take `COc1cc(NC(=O)c2ncccc2F)ccc1-c1noc(-c2ccccc2Cl)n1`: for the setting “PAM mode, EC20 (3 µM) L-Glu, T-REx 293 cells expressing human mGlu4 receptor”, the EC50 stood at 780 nM. In addition, the GluMax (PAM mode, human mGlu4) amounted to 135%. For the same compound, where the note is “in the presence of 10 µM of compound”, the “Fold shift of L-Glu dose-response curve” value is 6.2.

One may read the EC50 as the concentration giving half of the maximal effect.
